This is an account of results in US10167292B2, “Benzodiazepines as bromodomain inhibitors” (Catalyst Therapeutics Pty Ltd, priority 2015, dated 2019).

The subject of test [1] is HL-60. Briefly: Cell proliferation assay (CellTiter-Glo), HL-60. It is filed as cell-based. Conditions: Homo sapiens, HL-60, 72 h, read-out: HL-60 IC50 (μM). The procedure: (§1) The cells were prepared in the required fashion (suspension or adherent). The cells were initially washed once in the culture medium that they would be finally treated in. Following this 10 ml of the test medium was added and the cells. The mixture was pipetted gently several times.
(§2) The cells were counted and then the volume was spun down to the volume necessary for the total number of cells needed. The cells were then resuspended in the appropriate test medium to the desired concentration. In general, the final concentration of non-adherent cells was 2×10^5 cells/ml i.e. 10,000 cells per 50 μ1. Once the desired concentration had been reached, 50 µl of the cells were added to the appropriate wells and the cells were incubated for 72 h at 37° C.
(§3) CellTiter-Glo Luminescent Assay (Kit G7571—See Promega's Instruction Manual for Additional Details):
(§4) Both reagents were pre-warmed to RT. The buffer was thawed in a 37° C. water bath until it had just completely thawed. It was then left on a bench at RT for at least 30 min.
(§5) Following this the substrate and buffer were mixed together. To ensure that the substrate was dissolved, the mixture was inverted several times. […]
(§6) Afterwards 40 μL of the reagent was added to 100 μL of the culture medium. […] The luminescence could then be read using a luminescence plate reader.
For orientation: ATP-based viability assays read luminescence as a measure of living cells.

For test [2], the system named is MV4; 11. Briefly: Cell proliferation assay (CellTiter-Glo), MV4;11. It counts as cell-based. Conditions: Homo sapiens, MV4-11, 72 h, read-out: MV4; 11 IC50 (μM). The procedure: as §1, §2, §3, §4, §5, §6

`Cc1nnn2c1-c1ccc(-c3noc(=O)[nH]3)cc1N(c1ccc(Cl)cc1)CC2` [Example 49, 3-(7-(4-chlorophenyl)-1-methyl-6,7-dihydro-5H-benzo[f][1,2,3]triazolo[1,5-d][1,4]diazepin-9-yl)-1,2,4-oxadiazol-5(4H)-one]: the values for the IC50 in test [1] and in test [2] were over 5 µM and under 1 µM, respectively.
